Our source for the IC50 values is ChEMBL document CHEMBL5126602, “Polo-like Kinase 1 Inhibitors in Human Cancer Therapy: Development and Therapeutic Potential” (J Med Chem, 2022).

By UniProt entry, the sequences of proteins in these tests, tags left out. Where a name states a change or a piece, a line headed by the entry shows the natural chain unless it says otherwise.
UniProt Q9NYY3: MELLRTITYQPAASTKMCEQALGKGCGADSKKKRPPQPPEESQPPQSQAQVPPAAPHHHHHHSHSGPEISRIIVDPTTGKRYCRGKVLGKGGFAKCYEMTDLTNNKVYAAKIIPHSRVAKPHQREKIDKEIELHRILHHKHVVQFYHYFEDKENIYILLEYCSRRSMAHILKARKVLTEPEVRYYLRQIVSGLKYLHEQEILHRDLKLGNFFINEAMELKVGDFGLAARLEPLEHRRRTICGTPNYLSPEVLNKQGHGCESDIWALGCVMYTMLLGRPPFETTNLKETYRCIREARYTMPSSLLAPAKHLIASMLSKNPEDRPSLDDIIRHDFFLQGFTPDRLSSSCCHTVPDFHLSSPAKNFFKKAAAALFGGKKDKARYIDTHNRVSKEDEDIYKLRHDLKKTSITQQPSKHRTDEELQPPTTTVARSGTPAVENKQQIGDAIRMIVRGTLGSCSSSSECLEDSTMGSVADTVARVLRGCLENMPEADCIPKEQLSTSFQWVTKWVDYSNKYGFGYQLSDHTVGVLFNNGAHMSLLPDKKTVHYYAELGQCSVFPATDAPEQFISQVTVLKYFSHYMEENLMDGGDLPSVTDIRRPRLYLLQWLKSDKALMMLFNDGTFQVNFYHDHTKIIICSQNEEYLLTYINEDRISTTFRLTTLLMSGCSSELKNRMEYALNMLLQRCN

One may read the pIC50 as the IC50 on a negative log10 scale, so that one unit is a factor of ten.

The structures appear in SMILES notation. pIC50: −log10 of the molar value.

This assay deals with Serine/threonine-protein kinase PLK2 (Homo sapiens, UniProt Q9NYY3). Briefly: Inhibition of Myc-tagged PLK2 PBD (unknown origin) expressed in HEK293T cells using 5CF-GPMQTSpTPKNG-NH2 as substrate preincubated for 30 mins followed by substrate addition and measured after 30 mins by fluorescence polarization assay. On the technique in general: In fluorescence polarisation assays a small probe gives low polarisation when free and higher when bound to something large.

The molecule `CC(=O)N1CCC[C@H]1C(=O)N[C@@H](CC(C)C)C(=O)N[C@@H](Cc1cncn1CCCCCCCCc1ccccc1)C(=O)N[C@@H](CO)C(=O)N[C@H](C(N)=O)[C@@H](C)OP(=O)(O)O` had a pIC50 of 6.66.
